From article PMC4673895 (DNA repair, 2015)

B1: MBP-XLF (maltose-binding protein-tagged XLF, wild type) (natural protein, human, UniProt Q9H9Q4 1-299, looked up)
chain: MEELEQGLLMQPWAWLQLAENSLLAKVFITKQGYALLVSDLQQVWHEQVDTSVVSQRAKELNKRLTAPPAAFLCHLDNLLRPLLKDAAHPSEATFSCDCVADALILRVRSELSGLPFYWNFHCMLASPSLVSQHLIRPLMGMSLALQCQVRELATLLHMKDLEIQDYQESGATLIRDRLKTEPFEENSFLEQFMIEKLPEACSIGDGKPFVMNLQDLYMAVTTQEVQVGQKHQGAGDPHTSNSASLQGIDSQCVNQPEQLVSSAPTLSAPEKESTGTSGPLQRPQLSKVKRKKPRGLFS
B2: N-terminally FLAG-tagged XLF (FLAG-XLF) (natural protein, human, UniProt Q9H9Q4 1-299, looked up)
chain: MEELEQGLLMQPWAWLQLAENSLLAKVFITKQGYALLVSDLQQVWHEQVDTSVVSQRAKELNKRLTAPPAAFLCHLDNLLRPLLKDAAHPSEATFSCDCVADALILRVRSELSGLPFYWNFHCMLASPSLVSQHLIRPLMGMSLALQCQVRELATLLHMKDLEIQDYQESGATLIRDRLKTEPFEENSFLEQFMIEKLPEACSIGDGKPFVMNLQDLYMAVTTQEVQVGQKHQGAGDPHTSNSASLQGIDSQCVNQPEQLVSSAPTLSAPEKESTGTSGPLQRPQLSKVKRKKPRGLFS
B3: his6-XLF (wild type) (natural protein, human, UniProt Q9H9Q4 1-299, looked up)
chain: MEELEQGLLMQPWAWLQLAENSLLAKVFITKQGYALLVSDLQQVWHEQVDTSVVSQRAKELNKRLTAPPAAFLCHLDNLLRPLLKDAAHPSEATFSCDCVADALILRVRSELSGLPFYWNFHCMLASPSLVSQHLIRPLMGMSLALQCQVRELATLLHMKDLEIQDYQESGATLIRDRLKTEPFEENSFLEQFMIEKLPEACSIGDGKPFVMNLQDLYMAVTTQEVQVGQKHQGAGDPHTSNSASLQGIDSQCVNQPEQLVSSAPTLSAPEKESTGTSGPLQRPQLSKVKRKKPRGLFS

Key:
his6-TDP[…]A = his6-TDP[…]A (human, H263A); experiment: pull-down
his6-TDP[…]R = his6-TDP[…]R (human, H493R); experiment: pull-down
[1] = target: his6-TDP1 (human tyrosyl-DNA phosphodiesterase, wild type) (human); experiment: native gel or EMSA
[2] = target: N-terminally FLAG-tagged TDP1 (FLAG-TDP1) (human); experiment: native gel or EMSA

| Binder | binding result (his6-TDP[…]A) | binding result (his6-TDP[…]R) | binding result [1] | binding result [2] |
| --- | --- | --- | --- | --- |
| B1 | binds | binds | – | – |
| B2 | – | – | binds | – |
| B3 | – | – | binds | binds |
